Protein sequences, listed by entry. Tags and fused reporters are not part of them.
UniProt Q7Z2W7, whole entry: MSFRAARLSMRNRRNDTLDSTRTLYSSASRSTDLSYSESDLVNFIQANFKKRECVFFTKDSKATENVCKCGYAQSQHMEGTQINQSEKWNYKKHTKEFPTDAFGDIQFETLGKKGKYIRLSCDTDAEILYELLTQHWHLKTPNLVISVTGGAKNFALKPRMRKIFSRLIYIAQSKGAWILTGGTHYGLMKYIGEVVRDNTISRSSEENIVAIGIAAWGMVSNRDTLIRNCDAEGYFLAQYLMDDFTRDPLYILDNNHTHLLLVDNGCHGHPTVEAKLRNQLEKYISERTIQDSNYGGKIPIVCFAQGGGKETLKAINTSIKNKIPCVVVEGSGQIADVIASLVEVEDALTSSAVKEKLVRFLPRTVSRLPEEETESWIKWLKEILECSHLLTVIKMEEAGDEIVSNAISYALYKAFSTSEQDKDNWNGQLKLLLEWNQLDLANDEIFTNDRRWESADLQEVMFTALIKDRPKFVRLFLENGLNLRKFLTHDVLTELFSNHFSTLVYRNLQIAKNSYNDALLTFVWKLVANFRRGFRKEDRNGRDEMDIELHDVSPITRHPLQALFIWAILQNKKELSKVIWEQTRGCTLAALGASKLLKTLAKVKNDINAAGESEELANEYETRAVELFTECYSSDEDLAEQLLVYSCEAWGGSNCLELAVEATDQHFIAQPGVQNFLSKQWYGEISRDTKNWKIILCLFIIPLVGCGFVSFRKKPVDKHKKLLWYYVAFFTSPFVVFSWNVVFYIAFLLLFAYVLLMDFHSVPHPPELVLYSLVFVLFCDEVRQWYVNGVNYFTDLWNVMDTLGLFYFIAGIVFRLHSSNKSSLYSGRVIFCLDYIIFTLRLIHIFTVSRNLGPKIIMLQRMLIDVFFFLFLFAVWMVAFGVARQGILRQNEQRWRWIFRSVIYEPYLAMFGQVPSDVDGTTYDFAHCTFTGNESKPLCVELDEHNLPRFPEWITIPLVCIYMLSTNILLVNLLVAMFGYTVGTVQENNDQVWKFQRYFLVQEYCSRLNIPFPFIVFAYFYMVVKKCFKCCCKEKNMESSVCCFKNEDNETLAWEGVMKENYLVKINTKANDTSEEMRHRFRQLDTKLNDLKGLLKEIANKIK

In PMC2584039 (Molecular Pain, 2008):

Legend:
[1] = test system: 48 different enzymes, receptors, and transporters; assay: Selectivity panel, radioligand binding or enzymatic assays (MDS Pharma Service); conditions: 10 μM
[2] = target: TRPM8 (Homo sapiens, UniProt Q7Z2W7); assay: TRPM8 activation; conditions: concentrations up to 30 μM
[3] = test system: locomotor coordination; assay: Rotarod test of locomotor coordination; conditions: 100 and 300 mg/kg p.o., 1 hr post dose
[4] = test system: thermal sensitivity; assay: Hot plate test; conditions: 100 and 300 mg/kg p.o., 1 hr post dose, 52 degree C
[5] = Plasma concentration by LC-MS/MS after behavioral testing
[6] = test system: spinal nerve ligation induced mechanical hypersensitivity; conditions: one hour post dose; for percent reversal of SNL-induced mechanical hypersensitivity: vehicle 1%
[7] = test system: TRPV1; conditions: cited from earlier work
[8] = test system: TRPV3; conditions: cited from earlier work
[9] = test system: TRPV4; conditions: cited from earlier work
[10] = after oral administration in rats; ref US patent application 2007/0219222 A1; cited from earlier work
[11] = test system: formalin response; conditions: intraperitoneal (IP) administration; cited from earlier work
[12] = test system: CFA-induced mechanical hypersensitivity; assay: CFA induced mechanical hypersensitivity, Randall-Selitto test; conditions: for percent reversal of CFA-induced mechanical hypersensitivity: vehicle 5%

For `CC(C)c1ccc(NC(=O)Cn2cnc3c2c(=O)n(C)c(=O)n3C)cc1`, which “effect in target screen (41 receptors, ion channels, transporters; 7 enzymes)” value [1] is on record?
Its value is less than 40%.

What about the “block of TRPM8 activation” value [2] of the same molecule?
Its value is “did not block”.

And the “latency to fall off the rotarod vs vehicle” value [3]?
Its value is “no significant differences”.

What about the “thermal latencies on the hot plate test vs vehicle” value [4] of the same molecule?
The value was “no significant differences”.

What about the “average plasma exposure (± SEM)” value ([5]; AITC study, 100 mg/kg p.o., 100 mg/kg) of the same molecule?
Its value is 5.10 (± 0.67) μM and 5.1 μM.

What about the “average plasma exposure (± SEM)” value ([5]; AITC study, 300 mg/kg p.o., 300 mg/kg) of the same molecule?
Its value is 9.74 (± 0.37) μM and 9.7 μM.

What about the “average plasma exposure (± SEM)” value ([5]; CFA study, 100 mg/kg p.o., immediately after testing) of the same molecule?
The value was 8.23 (± 0.55) μM.

What about the “average plasma exposure (± SEM)” value ([5]; CFA study, 300 mg/kg p.o., immediately after testing) of the same molecule?
The value was 16.33 (± 1.86) μM.

And the “average plasma exposure (± SEM)” value ([5]; SNL study, 100 mg/kg p.o., immediately after testing)?
The value was 6.09 (± 1.25) μM.

What about the “average plasma exposure (± SEM)” value ([5]; SNL study, 300 mg/kg p.o., immediately after testing) of the same molecule?
The value was 7.55 (± 0.91) μM.

What about the “average plasma exposure (± SEM)” value ([5]; hot plate test, 100 mg/kg p.o.) of the same molecule?
Its value is 4.99 (± 0.69) μM.

And the “average plasma exposure (± SEM)” value ([5]; hot plate test, 300 mg/kg p.o.)?
The value was 7.21 (± 0.58) μM.

And the “average plasma exposure (± SEM)” value ([5]; rotarod experiment, 100 mg/kg p.o.)?
The value was 4.31 (± 0.36) μM.

And the “average plasma exposure (± SEM)” value ([5]; rotarod experiment, 300 mg/kg p.o.)?
The value was 10.93 (± 0.44) μM.

What about the “percent reversal of SNL-induced mechanical hypersensitivity” value ([6]; 100 mg/kg p.o.) of the same molecule?
The value was 24%.

What about the “percent reversal of SNL-induced mechanical hypersensitivity” value ([6]; 300 mg/kg p.o.) of the same molecule?
Its value is 41%.

And the “effect on SNL mechanical hypersensitivity vs vehicle” value ([6]; HC-030031 300 mg/kg, pregabalin 20 mg/kg, p.o.)?
Its value is “significant attenuation”.

What about the “block of TRPV1 activation by capsaicin” value [7] of the same molecule?
The value was “does not block”.

And the “block of TRPV3 activation by 2-APB” value [8]?
The value was “does not block”.

What about the “block of TRPV4 activation by 4α-PDD” value [9] of the same molecule?
The value was “does not block”.

What about the Tmax [10] of the same molecule?
Its Tmax is 45 min.

What about the “flinching in both phases of the formalin response” value [11] of the same molecule?
The value was “significantly reduced”.

What about the “percent reversal of CFA-induced mechanical hypersensitivity” value ([12]; 100 mg/kg p.o., 1 hr post dosing) of the same molecule?
Its value is 28%.

And the “percent reversal of CFA-induced mechanical hypersensitivity” value ([12]; 300 mg/kg p.o., 1 hr post dosing)?
The value was 35%.

And the “effect on mechanical thresholds for the uninjected paw” value ([12]; 100 and 300 mg/kg p.o.)?
Its value is “neither dose of HC-030031 had an impact”.

What about the “effect on mechanical hypersensitivity of the injected paw vs vehicle” value ([12]; HC-030031 100 and 300 mg/kg, naproxen 20 mg/kg, p.o., 1 hr post dosing) of the same molecule?
The value was “significantly attenuated”.

Where “and” joins values, the source holds several entries; their conditions need not be identical. Equal values may be shown once. Read-outs that look alike come from different tables or passages of the source.
